What was measured:
[1] = molecular target: T1, D-AAO (Sus scrofa, UniProt P00371); assay: D-AAO/HRP microplate test for detection of D-amino acids; format: biochemical, swine; conditions: 0.05 mM
T1 construct: purchased Sigma A-5222; host or cells: swine kidney
Description: • (3) Prepare a mixture containing the enzymes (D-AAO/HRP Mix), as follows: The amounts are given for one well, provided that the final volume will be 100 μl with the racemase products or the substrate:
This mixture is kept in the ice until use. • (4) The quantitation reaction starts when 13 μl of D-AAO/HRP mix is added to the reaction well. • (5) The microplate is covered with an adhesive coverlid and it is left in the dark at 37° C. between […] and 2 hours. The reaction can be monitored by eye whenever a color gradient matches the D-amino acid concentration of the standard dilutions. • (6) The microplate is read with a microplate spectrophotometer using a filter of at 490 nm.
The D-AAO/HRP test described here above can also be used for this purpose with slight modifications. For that purpose, the racemase reaction step should be skipped and the microplate test should start straightforward at the II-1-2.1-2 step described above with the following remarks:
1) Standard: It should not be an equimolar mixture of D- and L-amino acid, but rather a serial dilution of D-Amino acids. The choice of amino acid is made according to the interest of the D-amino acid under investigation. The final volume in wells should be of 87 μl.
2) Negative control: It is made with the L-enantiomer of the D-amino acid under investigation. The final volume should be 87 μl.
3) Blank: It is made with 87 μl buffer*. […]

Amino acid sequences for entries named in this document (tags omitted). A change or cut given only in a name is not applied to a line headed by its entry.
UniProt P00371: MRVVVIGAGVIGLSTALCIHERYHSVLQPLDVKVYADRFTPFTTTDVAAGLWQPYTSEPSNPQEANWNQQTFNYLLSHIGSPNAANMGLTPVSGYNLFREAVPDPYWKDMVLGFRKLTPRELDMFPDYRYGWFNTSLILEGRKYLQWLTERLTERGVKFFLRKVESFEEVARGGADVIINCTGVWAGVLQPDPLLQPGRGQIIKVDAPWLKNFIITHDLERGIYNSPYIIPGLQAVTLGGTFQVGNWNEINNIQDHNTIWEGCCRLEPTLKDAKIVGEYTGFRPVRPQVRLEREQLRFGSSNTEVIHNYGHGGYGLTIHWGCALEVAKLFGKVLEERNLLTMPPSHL

[2] = system: O=C(O)[C@@H]1CCCN1; assay: purified protein, by the assay type; conditions: other: L>D conversion, 0.125 μM enzyme, pH 6.0, 37° C.

Row | Molecule | Optical density at 490 nm [1] | Km [2] | Vmax [2]
1 | O=C(O)[C@H]1CCCN1 [D-pro, D-proline] | 0.159 |  | 
2 | rTcPRACA (Trypanosoma cruzi strain CL Brener) |  | 29 mM | 5.3e-05 mol/s
3 | rTcPRACB (Trypanosoma cruzi strain CL Brener) |  | 75 mM | 0.0002 mol/s

Source: patent publication US7556939B2, “Identification and characterization of racemases, definition of protein signatures, and a test for detecting D-amino acid and for screening molecules capable of inhibiting the activity of racemase, especially proline racemase” (Institut Pasteur, priority 2003, dated 2009)
